## Ab-14 light chain CDR variants: yeast mating affinities

All variants were tested on one target, the spike HR2 peptide PDVDLGDISGINAS (SARS-CoV-2).

Ab-14 is the parent antibody, in scFv form: VH, then the linker GGGGSGGGGSGGGGS, then VL. The heavy chain is unchanged in all variants.
VH: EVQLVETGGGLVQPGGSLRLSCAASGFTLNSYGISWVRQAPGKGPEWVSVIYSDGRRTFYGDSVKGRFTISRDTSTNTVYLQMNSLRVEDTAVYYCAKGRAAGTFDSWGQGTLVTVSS
VL: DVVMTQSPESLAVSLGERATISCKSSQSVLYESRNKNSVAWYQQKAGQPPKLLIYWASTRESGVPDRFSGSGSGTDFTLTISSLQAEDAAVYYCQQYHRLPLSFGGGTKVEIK

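The starting antibody came from a phage panning campaign against this peptide. Designed CDR sequences, proposed from the first random library and measured here. Their group label is 14L_En_Gibbs (En: ensemble of fine-tuned language models; Gibbs: Gibbs sampling). The scFvs were displayed on barcoded MATa yeast, the peptide on MATalpha yeast. Binding brings cells together so that they mate, and sequencing counts the barcode pairs among the diploids. A regression on co-assayed BCL2-family reference pairs converts the normalised counts of each replicate to an apparent Kd. Mating was done six times.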

Each variant is given by its three light chain CDRs, as the data file delimits them; those of the parent are KSSQSVLYESRNKNSVA, WASTRES, QQYHRLPLS.
Values are log10 of the apparent Kd in nM; lower means stronger binding.
A mean of the replicates is given; it leaves out those without a signal.
"n.d." marks a missing value. The strain was present, yet no cells mated with the target were sequenced in that replicate, which points to weak or no binding.
As a blank, each scFv also met three strains without target: over all light chain designs, 4% of these pairings were detected, typically at 2.64 and seldom below 1.59. The control count says in how many pairings with the empty strains this scFv gave a signal, with their mean in brackets.

| CDR-L1 | CDR-L2 | CDR-L3 | replicates, log10 nM | mean, log10 nM | signal with controls |
|---|---|---|---|---|---|
| SLHMMPPVGYALDENVA | NASQLFS | QQYFRLPLT | n.d. n.d. n.d. n.d. n.d. n.d. | n.d. | 0 of 18 |
| RLHAYTQGFWRAMQNIA | DISYRVT | QQYGRLPLS | 2.16 1.69 1.14 2.77 n.d. 2.13 | 1.98 | 0 of 18 |
| VLPDPMLMFEMQYNSIA | EGVQRME | QQYERLPLT | 1.04 1.33 0.99 0.76 1.27 1.56 | 1.16 | 0 of 18 |
| KLRNSWNGWYNDWASIA | EANMYAP | QQYQRLPFA | 1.90 1.26 1.72 1.34 2.25 2.21 | 1.78 | 1 of 18 (3.13) |
| SFHEINMEGLATNANVA | NASQLFE | QHYFRLPLQ | 1.59 1.46 1.03 0.67 0.75 1.51 | 1.17 | 0 of 18 |
| RLNVFQYAITGDNYAIA | NAREKLM | QQYMRLPLT | n.d. -0.72 -1.22 0.11 n.d. -1.26 | -0.77 | 0 of 18 |
| KLTEQLYNGERRPSSIA | AGVIGSD | QQYHQLPLV | 0.36 0.49 0.38 0.44 0.60 1.03 | 0.55 | 0 of 18 |
| HISANMWMQSSQWDAVA | QGDIANN | QQYSRLPLS | 1.41 2.13 1.75 1.28 1.58 0.62 | 1.46 | 0 of 18 |
| HLSLPWQLGHDSTNAVA | NMSTLMT | QHYSRLPLS | 1.65 1.14 1.01 0.87 0.95 1.07 | 1.11 | 0 of 18 |
| KFNQSKEGVTYEGESIA | GSQTIQE | QQYDRLPLA | 1.01 0.87 0.84 1.02 1.13 0.81 | 0.95 | 0 of 18 |
| QIFGKLQEHGNQKANVA | QGVESRN | QQYFVLPLT | n.d. n.d. n.d. n.d. n.d. n.d. | n.d. | 0 of 18 |
| DLTVNDNGISQMQSSIA | SGVEKCT | QQYSRLPLA | 1.74 1.97 1.52 1.41 1.75 2.57 | 1.83 | 1 of 18 (2.47) |
| QTTAFYEHGYDQQQAMA | NATMRDQ | QQYERLPLS | 1.34 1.10 1.10 1.26 1.26 1.05 | 1.19 | 2 of 18 (2.53) |
| KIRVQQYSQSEMEDNIA | QESVRHQ | QQYFHLPLS | n.d. 0.53 n.d. n.d. 0.94 2.98 | 1.48 | 0 of 18 |
| VFQQQWDGVTTTNSAVA | NVDERME | QQYNRLPLM | 0.77 0.47 0.14 0.10 0.31 0.23 | 0.34 | 2 of 18 (2.74) |
| QLQYDPGESLRSTHSIA | DVNIKDM | QQYARLPLA | 0.05 0.37 0.06 0.02 0.29 0.37 | 0.19 | 0 of 18 |
| KMVKAKSEGDRHAANVA | NANKATD | QQYYRLPLA | 0.35 0.35 -0.06 0.27 0.35 0.39 | 0.28 | 1 of 18 (2.93) |
| KLQNFSQEDNKMWNNIA | DMTMVHT | QQYNRLPLE | 1.05 0.41 0.52 0.09 0.54 0.69 | 0.55 | 1 of 18 (2.71) |
| RLLDWAYNLTAKERNIA | DMDIRGA | QQYSHLPLA | 1.15 1.19 0.98 1.22 0.68 0.78 | 1.00 | 3 of 18 (3.56) |
| KVEIFMWTMDNQNQHIA | NGAEERP | QQYQRLPLS | n.d. n.d. n.d. n.d. n.d. n.d. | n.d. | 0 of 18 |
| NFSGSDQYQMQEQGNVA | QTEQKAN | QQYFRLPLT | 0.54 0.05 0.21 0.46 0.41 0.56 | 0.37 | 1 of 18 (1.39) |
| SITVIDNPGSQLHNNIA | SGSCRAE | QQYIRLPLI | 0.39 0.20 0.35 0.48 0.33 0.58 | 0.39 | 0 of 18 |
| KVFMELAEDKASTRNIA | DASVHCA | QQYVRLPLG | 1.24 1.40 1.64 1.23 1.18 1.61 | 1.38 | 2 of 18 (2.31) |
| HISPMQAYAYEAKNSVA | DTETKLN | QQYIRLPLT | -0.36 -0.28 -0.14 0.46 -0.70 0.24 | -0.13 | 0 of 18 |
| QFHSHMAGDQRIDHSIA | NATWAVP | QQYFRLPLS | 0.70 0.75 0.83 0.47 0.64 0.93 | 0.72 | 0 of 18 |
| MIKEENIEVGNYQNSIA | DGASTMA | QQYYRLPLA | 1.18 1.35 0.85 0.57 0.73 1.13 | 0.97 | 1 of 18 (2.64) |
| HFSVETMEFMGQNKAIA | EVTTTML | QQYARLPFI | 0.97 0.72 0.61 0.54 0.47 0.82 | 0.69 | 2 of 18 (2.91) |
| KLTAAPNDYGQNRSAIA | EEVNSLQ | QQYHHLPLS | n.d. n.d. 1.81 n.d. n.d. n.d. | 1.81 | 0 of 18 |
| MLWQQDEGFNGVKDAIA | NAELREG | QQYGRLPLS | n.d. 1.09 0.98 2.42 2.68 0.96 | 1.63 | 0 of 18 |
| SIRQVTDDLQATHDAIA | DASQIEP | QQYSWLPLS | 2.17 1.96 2.38 1.94 1.58 2.07 | 2.02 | 2 of 18 (2.90) |
| TLMFAGEQEDSENKAIA | DAIIKGV | QQYNRLPLT | 0.23 0.60 0.13 0.93 0.94 1.25 | 0.68 | 1 of 18 (2.24) |
| KLESRQYHFGANHQNIA | DATDSMN | QQYMHLPFT | 0.11 0.08 -0.04 0.06 -0.05 0.51 | 0.11 | 1 of 18 (2.29) |
| NFYMDAAEFVNEDESIA | DAEISYQ | QQYHRLPLV | n.d. n.d. n.d. 2.25 2.37 n.d. | 2.31 | 0 of 18 |
| SMSNAQINPDNWKNSIA | DAEHVAY | QQYSRLPLT | 0.38 0.23 0.07 0.10 0.17 0.29 | 0.21 | 2 of 18 (3.22) |
| MLEEYQSYGAANLNAVA | DANCTMF | QQYYRLPLS | 1.00 1.16 1.12 0.96 1.18 1.01 | 1.07 | 2 of 18 (3.27) |
| HLSLRLSYGNMLNKAVA | EVQARVY | QQYARLPLL | n.d. n.d. n.d. 2.01 n.d. n.d. | 2.01 | 1 of 18 (1.57) |
| KIEQLVFPYGPSWHSIA | NAETLLA | QQYYMLPLM | 1.14 0.52 0.94 0.56 0.95 0.66 | 0.79 | 0 of 18 |
| SFHEINMEGLATTANVA | NASQLFE | QSYFRLPLT | 1.89 1.22 1.20 1.34 2.12 1.85 | 1.60 | 0 of 18 |
| QLPEVDSGDTLSQGAIA | HAAELVD | QQYFRLPLL | 0.44 0.58 0.55 0.24 0.43 0.54 | 0.46 | 2 of 18 (2.58) |

The 5 strongest on average among those seen in every replicate, once more:

CDR-L1,CDR-L2,CDR-L3,"replicates, log10 nM","mean, log10 nM",signal with controls
HISPMQAYAYEAKNSVA,DTETKLN,QQYIRLPLT,-0.36 -0.28 -0.14 0.46 -0.70 0.24,-0.13,0 of 18
KLESRQYHFGANHQNIA,DATDSMN,QQYMHLPFT,0.11 0.08 -0.04 0.06 -0.05 0.51,0.11,1 of 18 (2.29)
QLQYDPGESLRSTHSIA,DVNIKDM,QQYARLPLA,0.05 0.37 0.06 0.02 0.29 0.37,0.19,0 of 18
SMSNAQINPDNWKNSIA,DAEHVAY,QQYSRLPLT,0.38 0.23 0.07 0.10 0.17 0.29,0.21,2 of 18 (3.22)
KMVKAKSEGDRHAANVA,NANKATD,QQYYRLPLA,0.35 0.35 -0.06 0.27 0.35 0.39,0.28,1 of 18 (2.93)

Values of this round are not directly comparable with the first-round values of the same sequences.
The authors' rule: three or more of the six replicates give a measured affinity, fewer mean a poor binder.
Of ten entries with the parent sequence, four were seen in most replicates (averages 0.34 to 2.37), three in one and three in none, so single entries are noisy.

The measurements come from Li et al. 2023 (doi:10.1038/s41467-023-39022-2) through the FLAb antibody collection.